Reference: patent publication US9776992B2, “1-oxo-1,2-dihydroisoquinolin-7-yl-(5-substituted-thiophen-2-yl)-sulfonamide compounds, formulations containing those compounds, and their use as AICARFT inhibitors in the treatment of cancers” (Eli Lilly and Company, priority 2014, dated 2017)

Protein sequences, listed by entry. Tags and fused reporters are not part of them. Lines headed by an entry give the natural chain unless they say otherwise; changes in a name come on top.
UniProt P31939: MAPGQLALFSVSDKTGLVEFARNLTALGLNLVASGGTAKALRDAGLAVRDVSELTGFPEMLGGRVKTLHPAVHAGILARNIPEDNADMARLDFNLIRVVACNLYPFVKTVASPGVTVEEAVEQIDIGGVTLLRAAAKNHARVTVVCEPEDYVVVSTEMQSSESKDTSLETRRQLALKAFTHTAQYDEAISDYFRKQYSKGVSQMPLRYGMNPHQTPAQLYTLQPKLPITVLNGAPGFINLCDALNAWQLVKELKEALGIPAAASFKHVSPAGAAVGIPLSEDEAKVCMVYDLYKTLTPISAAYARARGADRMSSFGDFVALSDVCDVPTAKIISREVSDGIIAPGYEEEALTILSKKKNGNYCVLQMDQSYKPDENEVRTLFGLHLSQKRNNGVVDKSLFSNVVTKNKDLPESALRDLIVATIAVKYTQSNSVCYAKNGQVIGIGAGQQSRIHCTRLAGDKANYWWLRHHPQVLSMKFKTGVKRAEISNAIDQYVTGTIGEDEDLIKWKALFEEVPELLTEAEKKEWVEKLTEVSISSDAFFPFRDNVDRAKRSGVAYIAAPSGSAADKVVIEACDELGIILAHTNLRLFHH

Legend:
[1] = biological target: T1, AICARFT (Homo sapiens, UniProt P31939); assay: MS detection of ZMP in low folate media cultured NCI-H460 cells; format: cell-based; set-up: endogenous in cells; host or cells: NCI-H460; settings: Mean ± SEM, ZMP concentration by LC-MS, 16 hours
Procedure: Grow NCI-H460 cells in complete high folate RPMI media (ATCC #30-2001) until cellular confluence reaches ˜80%. Wash cells with PBS, trypsinize, resuspend cells in complete low folate RPMI media (Gibco #27016-021) and perform a cell count. Transfer 1.25×10^6 cells to a T225 flask containing complete low folate RPMI media (40 mL). Grow for seven days. Split cells again with complete low folate media if confluence surpasses 80%. Wash cells with PBS, trypsinize, resuspend cells in complete low folate RPMI media, and perform a cell count. Aliquot 10×10^6 cells in complete low folate media (1 mL)+5% DMSO per cryovial. Use a cell freezing apparatus to freeze cells in a slow and controlled manner in a −80° C. freezer. The next day, transfer cells to liquid nitrogen for long term storage. Thaw frozen cells from cryovial in 37° C. water bath, wash cells once with low folate assay medium: folate free RPMI 1640 medium (Gibco, #27016-021), Glucose (Sigma, #G5767), Hepes (Hyclone, #SH30237.01), Na Pyruvate (Hyclone, #Sh30239.01), 10% FBS (Hyclone, #SH30070.03). […]
The cellular effects of AICARFT inhibition on the concentrations of ZMP, 2′-deoxyuridine 5′-monophosphate (dUMP) and N^1-(β-D-Ribofuranosyl)-5-aminoimidazole-4-carboxamide (AICAr) are determined by LC-MS. […]

[2] = biological target: T1, AICARFT; assay: AICARFT enzyme assay (LC-MS of IMP and ZMP); format: biochemical; set-up: made in house; host or cells: E. coli BL21(DE3); settings: Mean ± SEM; 25 μM ZMP, 100 μM 10-F-THFA, 3 nM ATIC enzyme, 1 hour at room temperature
Procedure: Human AICARFT (NCBI accession number: NM_004044.6) cDNA is purchased from Openbiosystem Co. (Cat# MHS1011-62310, Clone ID: 4300570, accession: BC008879). The nucleotide sequence encoding full-length human AICARFT is inserted into pET21d (Novagen) vector with an N-terminal HIS tag. Bacterial BL21(DE3) (Novagen) is used as an expression host, and the induction of protein expression is carried out in 2×TY media with 1 mM IPTG at 18° C. overnight. Cell pellets are stored at −80° C. for subsequent protein purification. Protein purification is conducted at 4° C. […] Fractions containing HIS-AICARFT are pooled and protein concentration determined by the Bradford assay using BSA as standard. […]
One of the substrates of the enzyme reaction, 10-formyltetrahydrofolate (10-F-THFA), has limited chemical stability and is therefore synthesized on the same day that the ATIC enzyme assay is performed. […] The color changes from clear to yellow visually, and the complete conversion of folinic acid to 5,10-M-THFA is monitored by spectral analysis using a quartz cuvette. […] The color changes from yellow to clear visually, and the conversion of 5,10-M-THFA to 10-F-THFA is monitored by spectral analysis using a quartz cuvette. […]

O=c1[nH]ccc2cc(F)c(NS(=O)(=O)c3ccc(N4CC[C@H](O)C4)s3)cc12 [Example 8, N-(6-Fluoro-1-oxo-1,2-dihydroisoquinolin-7-yl)-5-[(3S)-3-hydroxypyrrolidin-1-yl]thiophene-2-sulfonamide]
IC50 [1]: 25 nM | IC50 [2]: 13.8 nM

O=c1[nH]ccc2cc(F)c(NS(=O)(=O)c3ccc(N4CC[C@@H](O)C4)s3)cc12 [Example 1, N-(6-Fluoro-1-oxo-1,2-dihydroisoquinolin-7-yl)-5-[(3R)-3-hydroxypyrrolidin-1-yl]thiophene-2-sulfonamide]
IC50 [1]: 22 nM | IC50 [2]: 15 nM
